## Ab-14 light chain CDR variants: yeast mating affinities

Values reported by Engelhart et al. 2022, doi:10.1038/s41597-022-01779-4 (FLAb copy).

Binding partner: SARS-CoV-2 spike HR2 peptide, sequence PDVDLGDISGINAS.

Ab-14 is the parent antibody, in scFv form: VH, then the linker GGGGSGGGGSGGGGS, then VL. The heavy chain is unchanged in all variants.
VH: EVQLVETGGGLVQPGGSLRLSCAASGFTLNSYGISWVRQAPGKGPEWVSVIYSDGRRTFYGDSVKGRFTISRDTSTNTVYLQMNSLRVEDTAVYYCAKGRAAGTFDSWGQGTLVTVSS
VL: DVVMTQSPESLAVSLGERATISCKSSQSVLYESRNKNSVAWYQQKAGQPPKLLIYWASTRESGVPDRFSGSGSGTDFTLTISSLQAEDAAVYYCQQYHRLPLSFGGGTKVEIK

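The library (AAYL50) carries one to three amino acid substitutions per variant, with no insertions or deletions. The scFvs were displayed on barcoded MATa yeast, the peptide on MATalpha yeast. After mating in shaken culture at 30 °C for 16 h, diploids were selected and their barcode pairs sequenced. A regression on co-assayed BCL2-family reference pairs converts the normalised counts of each replicate to an apparent Kd. There are three technical replicates.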

The parent's light chain CDRs are KSSQSVLYESRNKNSVA, WASTRES, QQYHRLPLS; each variant's own CDRs replace them letter for letter. The read-out is the apparent dissociation constant on a log10 scale (nM): the lower, the stronger. Averages over replicates are reported, and they cover detected replicates only. "nd" means that the variant was in the library but no mating with the target was seen in any replicate; the authors take this as a sign of poor binding, and no number exists.

For KSWQSVLYESRNMNSVA | WVSTRES | QQYHRLPLS, the assay gave 2.34 (3 of 3 replicates).
For KSSQSQLYESRNKNSVA | WLSTRES | QQYPRLPLS, the assay gave nd (0 of 3 replicates).
For KSSQLVLYESTNKNSVA | WASTRES | QQYHRLPLS, the assay gave 0.38 (3 of 3 replicates).
For KSSQFVSYESRNKNSVA | WASTRES | QQYHRLPYS, the assay gave nd (0 of 3 replicates).
For KSSQSVLYESRNKYSTA | WAGTRES | QQYHRLPLS, the assay gave 4.75 (3 of 3 replicates).
For KSSSSVLYEVRNKNSVA | WASTRES | QQYKRLPLS, the assay gave 2.96 (3 of 3 replicates).
For KCSQSQLYESRNKNSFA | WASTRES | QQYHRLPLS, the assay gave 2.99 (3 of 3 replicates).
For KSSQSVLYESPNKNSVA | WASTRSS | QQYHRLMLS, the assay gave 5.43 (1 of 3 replicates).
For KSSQSVLYESRNKNNVA | WNSTRES | QQYHRLNLS, the assay gave 5.15 (1 of 3 replicates).
For KSSQSVLYESRNKNHVA | WASTRES | QQYHCLSLS, the assay gave 1.99 (3 of 3 replicates).
For KSFQSVLYESRNKNSVA | WASTRES | QQGHRLNLS, the assay gave 1.99 (1 of 3 replicates).
For KSSQSVLYESRNKNSYI | WASTREQ | QQYHRLPLS, the assay gave nd (0 of 3 replicates).
For KSSQSVLYESRNTNSVA | KASTRES | QQYHRLPLS, the assay gave 0.18 (3 of 3 replicates).
For KSSQSVLYETRNKNSVA | WASTRES | QQYNRLPES, the assay gave 1.44 (3 of 3 replicates).
For KSSQHVLRESRGKNSVA | WASTRES | QQYHRLPLS, the assay gave 3.07 (3 of 3 replicates).
For KSSQSVLYESRNKNSVA | WASTREK | QQNHRLPLS, the assay gave 1.44 (3 of 3 replicates).
For KSSQSVLYASRNKNSVA | WASTRMS | QQYHRLPCS, the assay gave nd (0 of 3 replicates).
For KSSQSPLYESRFKNSVV | WASTRES | QQYHRLPLS, the assay gave 3.63 (1 of 3 replicates).
For KASQSVLYESRNKNSVA | EASTQES | QQYHRLPLS, the assay gave 0.48 (3 of 3 replicates).
For KSSQSVLYESRNKNSVA | WAYTRES | QQYHRLDLS, the assay gave nd (0 of 3 replicates).
For KSTQSVLYESRNKNLVA | WASTRES | QQYNRLPLS, the assay gave 4.52 (1 of 3 replicates).
For KSSQQVLYESRNKNSVA | WASTRES | QLYHRLPLS, the assay gave 0.92 (3 of 3 replicates).
For KSSQSVLYESRNKNSVA | WASYRMS | QQYHRLPLS, the assay gave 5.43 (1 of 3 replicates).
For ISSQSVLYESRNKNSVA | WASTVES | QQYHRLTLS, the assay gave 2.66 (2 of 3 replicates).
For KSSQSLLYESRNKNSVA | WASTRES | CQYERLPLS, the assay gave 3.43 (2 of 3 replicates).
For KSSQSVLTESRNKNSVA | WASLRES | QQYHRLNLS, the assay gave nd (0 of 3 replicates).
For KSSQSVLYESRNKNSVA | WASTRSY | QQYHRLPLS, the assay gave nd (0 of 3 replicates).
For KSSQSVLYESRNKVHVA | WFSTRES | QQYHRLPLS, the assay gave nd (0 of 3 replicates).
For KSSQMALYESRCKNSVA | WASTRES | QQYHRLPLS, the assay gave 2.47 (3 of 3 replicates).
For KSSQSVLYESRNKNSQA | WASDRES | QQGHRLPLS, the assay gave nd (0 of 3 replicates).
For KSSQSVLYESRNKNSVA | ASSTRES | QQYHRLPLS, the assay gave 0.30 (3 of 3 replicates).
For TASQSVLYESRNKNSVA | WASTRES | QQYHRLALS, the assay gave 3.48 (3 of 3 replicates).
For KSSQSVLYEPRNKNSVA | WASTREY | QHYHRLPLS, the assay gave 1.97 (3 of 3 replicates).
For KSSQEVLYASRNKNSVA | WASTRES | QQYHRLPLS, the assay gave 0.85 (3 of 3 replicates).
For WSSQSVLYESRNKGSVQ | WASTRES | QQYHRLPLS, the assay gave 3.46 (1 of 3 replicates).
For KSMQYVLYESRNKNSVA | WASTRES | QQYHTLPLS, the assay gave 1.36 (3 of 3 replicates).
For KSSQSCLYESRNKNSVA | WASTRES | QQYHRFPLF, the assay gave nd (0 of 3 replicates).
For KSSQSVLYESRNKNSHA | WASTRGW | QQYHRLPLS, the assay gave 5.17 (2 of 3 replicates).
For KSSQKVLYESRNKNSVA | WLSTRES | QQYHRLPLS, the assay gave 4.30 (2 of 3 replicates).
For KSAQSVLYHSRNKNSVA | WASKRES | QQYHRLPLS, the assay gave 2.60 (3 of 3 replicates).
For KSSQSVMYESRNKSSVA | WASTRES | QQYHRLTLS, the assay gave 2.92 (3 of 3 replicates).
For KSSQSVLYEKRNKNSVW | WASTRES | QQYHRNPLS, the assay gave nd (0 of 3 replicates).
For KSSQSVLYWSRNANSVA | WAYTRES | QQYHRLPLS, the assay gave 2.38 (3 of 3 replicates).
For KSSQSVLYESNNKNCVA | WASTRGS | QQYHRLPLS, the assay gave 2.07 (3 of 3 replicates).
For KVSQSVLYESRNKNSVA | WASTRES | QQYWRLPLS, the assay gave 0.66 (3 of 3 replicates).
For KSSQSVCYESRNKNSVA | WASTRES | QQYHRLMLA, the assay gave 1.53 (3 of 3 replicates).
For KSSQSVIYESRYKNSVA | WASTRES | QQYHRLPLP, the assay gave nd (0 of 3 replicates).

Extract of 4 entries:

| CDR-L1 | CDR-L2 | CDR-L3 | mean, log10 nM | detected |
|---|---|---|---|---|
| KSSQKVLYESRNKNSVA | WLSTRES | QQYHRLPLS | 4.30 | 2 of 3 |
| KSMQYVLYESRNKNSVA | WASTRES | QQYHTLPLS | 1.36 | 3 of 3 |
| KSSQHVLRESRGKNSVA | WASTRES | QQYHRLPLS | 3.07 | 3 of 3 |
| KSSQSVLYESNNKNCVA | WASTRGS | QQYHRLPLS | 2.07 | 3 of 3 |

Background: pairings of library AAYL50 with three empty control strains gave a value in 18% of cases (median 4.19, 5th percentile 2.99). Values in that range, when seen in few replicates, are hard to tell from nonspecific mating. For reference, the parent read 0.65 as the reference entry and 1.68 as a member of this library.